Measured values published in patent US20260062412A1, “NITROGEN-CONTAINING HETEROCYCLIC COMPOUND HAVING MYT1 INHIBITORY ACTIVITY” (CHUGAI SEIYAKU KABUSHIKI KAISHA, priority 2023, published 2026).

The chains behind the UniProt entries cited, without tags or fusion partners.
UniProt Q99640, whole entry: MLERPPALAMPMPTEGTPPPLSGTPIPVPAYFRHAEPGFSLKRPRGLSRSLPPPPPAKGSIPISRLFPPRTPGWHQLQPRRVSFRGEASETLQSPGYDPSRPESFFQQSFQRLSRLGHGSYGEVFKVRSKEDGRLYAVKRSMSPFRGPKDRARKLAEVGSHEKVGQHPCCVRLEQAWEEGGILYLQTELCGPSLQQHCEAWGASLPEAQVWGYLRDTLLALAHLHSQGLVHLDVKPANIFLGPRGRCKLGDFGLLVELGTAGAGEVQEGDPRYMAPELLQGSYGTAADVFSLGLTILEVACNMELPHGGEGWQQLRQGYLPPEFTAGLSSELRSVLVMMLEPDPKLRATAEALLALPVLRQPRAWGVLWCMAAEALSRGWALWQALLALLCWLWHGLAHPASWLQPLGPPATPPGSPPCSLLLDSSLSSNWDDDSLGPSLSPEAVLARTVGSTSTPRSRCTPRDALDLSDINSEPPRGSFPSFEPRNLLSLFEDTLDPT

Tests used:
MYT1 protein [1] = biological target: T1, MYT1 protein (Homo sapiens (Human), UniProt Q99640); test: MYT1 kinase activity inhibition test (ELISA, phosphorylation of Y15 of CDK1); settings: read-out: ELISA IC50; phosphorylation level of Y15 of CDK1 protein caused by MYT1 protein, 60 minutes
Procedure: The MYT1 kinase activity inhibitory capacity of each compound was evaluated by evaluating the phosphorylation level of Y15 of CDK1 protein caused by MYT1 protein, by ELISA. The kit of CycLex Weel Kinase Assay/Inhibitor Screening Kit Ver. 3 (manufactured by MBL, CY-1172V3) was used. Using Kinase Buffer, 10 μL of 5 nM MYT1 protein (manufactured by Carna Biosciences, Inc.) was prepared. In addition, 30 μL of 83.3 μM of ATP was prepared using Kinase Buffer. In addition, 10 μL of each compound was diluted to each concentration using Kinase Buffer. 30 μL of ATP was added to the plate of the kit, and thereafter, 10 μL of each compound was added thereto. Further, 10 μL of the diluted MYT1 protein solution was added thereto, and then the mixture was mixed, which was allowed to stand at room temperature for 60 minutes. The reaction solution was removed from each well, and each well was washed using Wash Buffer. After Wash Buffer was removed, 100 μL of HRP conjugated Anti-phospho-tyrosine antibody was added to each well, which was allowed to stand at room temperature for 60 minutes. […] Absorbances at 450 nm and 590 nm were measured using Envision (manufactured by PerkinElmer). The phosphorylation level of CDK1 protein was evaluated for each well by subtracting the absorbance at 590 nm from the absorbance at 450 nm. […]

MYT1 protein [2] = biological target: T1, MYT1 protein; test: Test for binding to ATP binding site of MYT1 (Kinase Tracer 178 / Eu-Anti-GST antibody TR-FRET); settings: read-out: Binding IC50; ATP binding site of MYT1, 30 minutes at room temperature

With Nc1c(-c2ccc(F)c3[nH]ncc23)c2cc(Br)c3cccnc3c2[nH]c1=O as the molecule, how does the IC50 (MYT1 protein [1]) read?
The IC50 was 17 nM.

What about the IC50 (MYT1 protein [2]) of the same molecule?
The IC50 was 9 nM.
